{
  "sequences": {"note": "The chains behind the UniProt entries cited, without tags or fusion partners. Where a name states a change or a piece, a line headed by the entry shows the natural chain unless it says otherwise.", "UniProt P21913": "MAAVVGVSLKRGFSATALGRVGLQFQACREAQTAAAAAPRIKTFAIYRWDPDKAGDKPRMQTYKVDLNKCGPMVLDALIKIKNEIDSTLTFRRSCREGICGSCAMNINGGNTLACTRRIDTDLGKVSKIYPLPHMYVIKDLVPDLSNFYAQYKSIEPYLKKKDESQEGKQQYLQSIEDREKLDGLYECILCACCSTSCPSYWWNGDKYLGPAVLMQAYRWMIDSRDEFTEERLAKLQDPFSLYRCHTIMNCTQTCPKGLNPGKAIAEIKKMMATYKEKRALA", "UniProt Q641Z9": "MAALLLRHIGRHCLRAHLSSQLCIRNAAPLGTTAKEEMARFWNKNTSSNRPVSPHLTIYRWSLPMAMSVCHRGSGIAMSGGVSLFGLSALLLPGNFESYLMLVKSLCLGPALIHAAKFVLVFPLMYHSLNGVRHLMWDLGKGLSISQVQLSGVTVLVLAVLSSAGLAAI", "UniProt Q6PCT8": "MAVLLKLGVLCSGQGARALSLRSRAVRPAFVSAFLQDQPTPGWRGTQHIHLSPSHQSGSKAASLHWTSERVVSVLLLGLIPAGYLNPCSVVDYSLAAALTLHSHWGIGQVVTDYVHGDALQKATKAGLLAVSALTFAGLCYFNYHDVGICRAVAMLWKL"},
  "source": "patent US20240166603A1",
  "about": "“Method of Treating Cancer With Atpenin A5 Derviatives” (Texas Tech University System, priority 2018, published 2024)",
  "biological_target": "mitochondrial complex II (CII) (Rattus norvegicus, UniProt P21913+Q641Z9+Q6PCT8)",
  "experiment": "Complex II inhibition assay, isolated rat heart mitochondria",
  "conditions": "LLE = pIC50-ClogP",
  "data": [
    {"compound": "CCCCCCCCCC(=O)c1c(O)nc(OC)c(OC)c1O", "values": [
      {"measurement": "LLE (Ligand-Lipophilicity Efficiency)", "value": 4.69}
    ]}
  ]
}
